Measured values from paper PMC2906776 (Bioorganic & medicinal chemistry, 2009).

Tested on: ER positive MCF-7 cells

Substance: Rhodamine coupled per-6-(4-hydroxymethyl-1,2,3-triazolmethyl)-6-deoxy-β-cyclodextrin [Compound 26R]
- Cellular localization / membrane permeation: no evidence for cell membrane permeation
